From PubChem BioAssay AID957 (National Center for Advancing Translational Sciences (NCATS), 2007) come the findings set out here.

The entries are a selection whose mix differs from that of the whole data set. Calls of active or inactive are those of the source. Calls come from the whole dose curve; as a rule, active = well fitted curve in the direction sought with a large enough effect; inconclusive = small, poorly fitted or top-dose-only effect, or another doubt; inactive = no such curve, though single readings can be large or run the other way.

The target of the assay is Alpha-galactosidase A (Homo sapiens) (UniProt P06280). Description: Counterscreen for Glucocerebrosidase Inhibitors: qHTS Assay for Coffee Bean alpha-Galactosidase at pH 4.5.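 Note: plate controls were enzyme alone for no effect and no enzyme for full effect.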 Conditions: purified coffee bean alpha-galactosidase, fluorogenic substrate; at 76.9 µM (top of the series). A digest of the protocol:
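Quantitative HTS of compounds (0.7 nM to 77 uM) against coffee bean alpha-galactosidase at pH 4.5, measuring 4-methylumbelliferone fluorescence released from 80 uM substrate.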
(In general: Counterscreens check selectivity or assay interference.)

Take `N#[O+].[C-]#N.[C-]#N.[C-]#N.[C-]#N.[C-]#N.[Fe+2].[Na+].[Na+]`: the activity change, negative = inhibition was inactive: -0.936%.
